How the values were obtained:
β-catenin/E-cadherin = β-catenin/E-cadherin (Homo sapiens, UniProt P35222); assay: FP selectivity assay, β-catenin/E-cadherin
[1] = target: T1, β-catenin V511S/I569S double mutant/Tcf4 (Homo sapiens, UniProt P35222, I569S/V511S); assay: FP competitive inhibition assay, V511S/I569S mutant; type: binding; conditions: site-directed mutagenesis study, wild-type Tcf4, read-out: Ki ± SD V511S/I569S β-catenin
T1 construct: Wild-type β-catenin and its mutants (residues 138-686) were cloned; 6xHis; made in house; host or cells: E. coli BL21 DE3

Protein sequences, listed by entry. Tags and fused reporters are not part of them. Residues count along the entry.
UniProt P35222, 138-686: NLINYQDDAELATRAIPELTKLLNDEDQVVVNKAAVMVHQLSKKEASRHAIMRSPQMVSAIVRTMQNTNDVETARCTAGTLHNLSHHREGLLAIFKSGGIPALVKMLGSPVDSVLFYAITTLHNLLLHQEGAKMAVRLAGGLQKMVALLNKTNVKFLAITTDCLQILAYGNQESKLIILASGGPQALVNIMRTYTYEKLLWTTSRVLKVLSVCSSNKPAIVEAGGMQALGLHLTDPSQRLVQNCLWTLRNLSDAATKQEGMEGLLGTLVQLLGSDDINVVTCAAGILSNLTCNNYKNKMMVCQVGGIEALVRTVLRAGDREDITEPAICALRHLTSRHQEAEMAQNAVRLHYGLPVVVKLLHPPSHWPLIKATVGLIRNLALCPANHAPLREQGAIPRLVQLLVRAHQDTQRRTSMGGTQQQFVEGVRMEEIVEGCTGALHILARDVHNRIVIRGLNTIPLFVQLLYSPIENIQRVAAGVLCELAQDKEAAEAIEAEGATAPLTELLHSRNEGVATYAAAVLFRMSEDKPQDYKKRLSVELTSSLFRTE
UniProt P35222, 138-686 V511S/I569S: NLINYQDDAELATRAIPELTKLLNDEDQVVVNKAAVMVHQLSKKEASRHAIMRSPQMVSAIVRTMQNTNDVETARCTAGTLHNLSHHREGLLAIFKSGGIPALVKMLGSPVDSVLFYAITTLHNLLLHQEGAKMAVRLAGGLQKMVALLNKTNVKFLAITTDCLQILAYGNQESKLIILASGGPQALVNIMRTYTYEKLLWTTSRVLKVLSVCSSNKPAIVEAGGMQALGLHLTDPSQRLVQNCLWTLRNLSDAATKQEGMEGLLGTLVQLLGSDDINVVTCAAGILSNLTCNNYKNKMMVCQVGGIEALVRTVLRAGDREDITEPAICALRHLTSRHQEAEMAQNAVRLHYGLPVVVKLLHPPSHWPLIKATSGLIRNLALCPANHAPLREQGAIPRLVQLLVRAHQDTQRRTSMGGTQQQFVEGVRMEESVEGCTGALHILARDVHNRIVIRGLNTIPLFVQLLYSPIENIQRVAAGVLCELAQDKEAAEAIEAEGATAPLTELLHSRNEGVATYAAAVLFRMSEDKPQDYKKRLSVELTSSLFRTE

β-catenin/Tcf4 = β-catenin/Tcf4 (Homo sapiens, UniProt P35222); assay: biochemical
β-catenin/Tcf4 PPI = β-catenin/Tcf4 PPI (Homo sapiens, UniProt P35222); conditions: read-out: Ki ± SD AlphaScreen; Table 8, resynthesized 18 and derivatives
β-catenin/APC-R3 = β-catenin/APC-R3 (Homo sapiens, UniProt P35222); assay: FP selectivity assay, β-catenin/APC-R3
SW480 cells = assay: MTs cell viability assay, SW480; type: cell-based, human; conditions: result in words
HCT116 cells = assay: MTs cell viability assay, HCT116; type: cell-based, human; conditions: result in words

| Structure (SMILES) | Ki (β-catenin/E-cadherin) [µM] | Ki [1] [µM] | Ki (β-catenin/Tcf4) [µM] | Ki (β-catenin/Tcf4 PPI) [µM] | Ki (β-catenin/APC-R3) [µM] | growth of SW480 cells (SW480 cells) | growth of HCT116 cells (HCT116 cells) |
| --- | --- | --- | --- | --- | --- | --- | --- |
| O=C(O)CCCn1c2ccccc2c2nc3nonc3nc21 [Compound 33, 4-(5H-[1,2,5]Oxadiazolo[3′,4′:5,6]Pyrazino[2,3-B]Indol-5-yl)Butanoic Acid] | 170 ± 26 | 59 ± 4.2 | 15 ± 5.3 | 1 ± 0.13 | 340 ± 25 | – | – |
| N#CCCn1c2ccccc2c2nc3nonc3nc21 [Compound 35, 3-(5H-[1,2,5]Oxadiazolo[3′,4′:5,6]Pyrazino[2,3-B]Indol-5-yl)Propanenitrile] | – | – | – | – | – | inhibited | not |

Source: patent US10273246B2, “Methods and compositions of substituted 5H-[1,2,5] oxadiazolo [3′,4′:5,6] pyrazino[2,3-B] indole analogs as inhibitors of β-catenin/T-cell factor protein-protein interactions” (University of Utah Research Foundation, priority 2015, dated 2019)
